{
  "source": "patent US6323205A",
  "about": "(priority 2000, dated 2001)",
  "conditions": "mouse, in vivo",
  "note": "Where two headings read alike, the source gives them in different places.",
  "data": [
    {"smiles": "C#CCC(Cc1cnc2nc(N)nc(N)c2n1)c1ccc(C(=O)N[C@@H](CCC(=O)O)C(=O)O)cc1", "note": "(some centres unmarked) [10-propargyl-10-deazaaminopterin]", "values": [
      {"measurement": "mice died", "setting": "600 mg/kg", "value": "four out of five mice died"},
      {"measurement": "mice died", "setting": "ip, 400 mg/kg", "value": "four out of five mice died"}
    ]}
  ]
}
